From PubChem BioAssay (NCI)
Some results for these compounds are left out of this collection, so the calls shown say nothing about other tests.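 Values below derive from 48-hour exposures of cells grown in 96-well plates, with endpoints linearly interpolated between the two concentrations bracketing the appropriate inhibition level. GI50 is the concentration that inhibits growth by half.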

Key:
Test in all cases: growth of human tumour cells (NCI), 48 h; in the data active = GI50 below about 0.43 µM; inactive = the rest
786-0 renal = system: 786-0 renal
A498 renal = system: A498 renal
A549 NSCLC = system: A549 NSCLC
ACHN renal = system: ACHN renal
CAKI-1 renal = system: CAKI-1 renal
CCRF-CEM leukemia = system: CCRF-CEM leukemia
COLO 205 colon = system: COLO 205 colon
DU-145 prostate = system: DU-145 prostate
EKVX NSCLC = system: EKVX NSCLC
HCC-2998 colon = system: HCC-2998 colon
HCT-116 colon = system: HCT-116 colon
HCT-15 colon = system: HCT-15 colon
HL-60(TB) leukemia = system: HL-60(TB) leukemia
HOP-62 NSCLC = system: HOP-62 NSCLC
HS 578T breast = system: HS 578T breast
HT29 colon = system: HT29 colon
IGROV1 ovarian = system: IGROV1 ovarian
K-562 leukemia = system: K-562 leukemia
KM12 colon = system: KM12 colon
LOX IMVI melanoma = system: LOX IMVI melanoma
M14 melanoma = system: M14 melanoma
MALME-3M melanoma = system: MALME-3M melanoma
MCF7 breast = system: MCF7 breast
MDA-MB-231 breast = system: MDA-MB-231 breast
MDA-MB-435 = system: MDA-MB-435
MDA-N = system: MDA-N
MOLT-4 leukemia = system: MOLT-4 leukemia
NCI-H226 lung = system: NCI-H226 lung
NCI-H23 lung = system: NCI-H23 lung
NCI-H322M lung = system: NCI-H322M lung
NCI-H460 lung = system: NCI-H460 lung
NCI-H522 lung = system: NCI-H522 lung
NCI/ADR-RES ovarian = system: NCI/ADR-RES ovarian
OVCAR-3 ovarian = system: OVCAR-3 ovarian
OVCAR-4 ovarian = system: OVCAR-4 ovarian
OVCAR-5 ovarian = system: OVCAR-5 ovarian
OVCAR-8 ovarian = system: OVCAR-8 ovarian
PC-3 prostate = system: PC-3 prostate
RPMI-8226 leukemia = system: RPMI-8226 leukemia
RXF 393 renal = system: RXF 393 renal
SF-268 CNS = system: SF-268 CNS
SF-295 CNS = system: SF-295 CNS
SF-539 CNS = system: SF-539 CNS
SK-MEL-2 melanoma = system: SK-MEL-2 melanoma
SK-MEL-28 melanoma = system: SK-MEL-28 melanoma
SK-MEL-5 melanoma = system: SK-MEL-5 melanoma
SK-OV-3 ovarian = system: SK-OV-3 ovarian
SN12C renal = system: SN12C renal
SNB-19 CNS = system: SNB-19 CNS
SNB-75 CNS = system: SNB-75 CNS
SR leukemia = system: SR leukemia
SW-620 colon = system: SW-620 colon
T-47D breast = system: T-47D breast
TK-10 renal = system: TK-10 renal
U251 CNS = system: U251 CNS
UACC-257 melanoma = system: UACC-257 melanoma
UACC-62 melanoma = system: UACC-62 melanoma
UO-31 renal = system: UO-31 renal

Measured: GI50

O=C(OC1CCN(Cc2ccccc2)C1)C(O)(c1ccccc1)c1ccccc1 (stereo not drawn)
inactive: 786-0 renal > 100 µM | A498 renal > 100 µM | A549 NSCLC > 100 µM | ACHN renal > 100 µM | CAKI-1 renal > 100 µM | CCRF-CEM leukemia > 100 µM | COLO 205 colon > 100 µM | DU-145 prostate > 100 µM | EKVX NSCLC > 100 µM | HCC-2998 colon > 100 µM | HCT-116 colon > 100 µM | HCT-15 colon > 100 µM | HL-60(TB) leukemia > 100 µM | HOP-62 NSCLC > 100 µM | HS 578T breast > 100 µM | HT29 colon 63.8 µM | IGROV1 ovarian > 100 µM | K-562 leukemia > 100 µM | KM12 colon > 100 µM | LOX IMVI melanoma > 100 µM | M14 melanoma > 100 µM | MALME-3M melanoma 78.1 µM | MCF7 breast > 100 µM | MDA-MB-231 breast > 100 µM | MDA-MB-435 = > 100 µM | MDA-N > 100 µM | MOLT-4 leukemia 67.1 µM | NCI-H226 lung > 100 µM | NCI-H23 lung > 100 µM | NCI-H322M lung > 100 µM | NCI-H460 lung > 100 µM | NCI-H522 lung > 100 µM | NCI/ADR-RES ovarian > 100 µM | OVCAR-3 ovarian > 100 µM | OVCAR-4 ovarian > 100 µM | OVCAR-5 ovarian > 100 µM | OVCAR-8 ovarian > 100 µM | PC-3 prostate 92.8 µM | RPMI-8226 leukemia 60.2 µM | RXF 393 renal > 100 µM | SF-268 CNS > 100 µM | SF-295 CNS > 100 µM | SF-539 CNS > 100 µM | SK-MEL-2 melanoma > 100 µM | SK-MEL-28 melanoma > 100 µM | SK-MEL-5 melanoma > 100 µM | SK-OV-3 ovarian > 100 µM | SN12C renal > 100 µM | SNB-19 CNS > 100 µM | SNB-75 CNS > 100 µM | SR leukemia > 100 µM | SW-620 colon > 100 µM | T-47D breast > 100 µM | TK-10 renal > 100 µM | U251 CNS > 100 µM | UACC-257 melanoma > 100 µM | UACC-62 melanoma > 100 µM | UO-31 renal > 100 µM
